This experiment addresses Aurora A kinase (Homo sapiens, UniProt O14965). In words: Aurora-A (human) kinase assay (Kemptide substrate). It is filed as biochemical. As to conditions: pIC50 is -log(IC50, M); 15 μM ATP.

Protein sequences, listed by entry. Tags and fused reporters are not part of them.
UniProt O14965, whole entry: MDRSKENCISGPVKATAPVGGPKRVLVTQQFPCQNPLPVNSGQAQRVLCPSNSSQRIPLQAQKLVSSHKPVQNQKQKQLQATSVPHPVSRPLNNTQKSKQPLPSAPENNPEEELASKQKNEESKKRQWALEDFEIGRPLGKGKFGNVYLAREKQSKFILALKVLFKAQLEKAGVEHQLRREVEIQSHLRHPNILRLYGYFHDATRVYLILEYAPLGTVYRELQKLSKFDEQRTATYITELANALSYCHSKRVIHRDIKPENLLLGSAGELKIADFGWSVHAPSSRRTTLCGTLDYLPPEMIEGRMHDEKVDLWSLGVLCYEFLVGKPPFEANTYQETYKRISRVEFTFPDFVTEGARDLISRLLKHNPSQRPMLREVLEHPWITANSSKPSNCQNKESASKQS

Each structure is given as a SMILES string.

Turning to `CC(=O)N1CCN(c2ccc(Nc3nccc(-c4sc(-c5cccnc5)nc4C)n3)cc2)CC1`, the “Kinase Inhibition pIC50 Aurora A kinase” value worked out at 7.3.

`COCCOc1cc(C(F)(F)F)cnc1-c1nc(C)c(-c2ccnc(Nc3ccc(N4CCOCC4)cc3)n2)s1`: the “Kinase Inhibition pIC50 Aurora A kinase” value was determined as 6.5.
